What is called Kd is a measure of binding affinity in units of concentration. Low values mean tighter binding, high ones weaker binding.

This is an account of results in publication PMC10164577 (2022).

This assay has as its target Histone H3-H4 (Saccharomyces cerevisiae). The experiment in a line: fluorescence polarization. (Fluorescence polarisation rises when a labelled molecule tumbles more slowly, as on binding a larger partner.)

Where only a bound is given, the exact number is not on record here.

B1: RPA (protein)
chain 1: SSVQLSRGDFHSIFTNKQRYDNPTGGVYQVYNTRKSDGANSNRKNLIMISDGIYHMKALLRNQAASKFQSMELQRGDIIRVIIAEPAIVRERKKYVLLVDDFELVQSRADMVNQTSTFLDNYFSEHPNETLKDEDITDSGNVANQTNASNAGVPDMLHSNSNLNANERKFANENPNSQKTRPIFAIEQLSPYQNVWTIKARVSYKGEIKTWHNQRGDGKLFNVNFLDTSGEIRATAFNDFATKFNEILQEGKVYYVSKAKLQPAKPQFTNLTHPYELNLDRDTVIEECFDESNVPKTHFNFIKLDAIQNQEVNSNVDVLGIIQTINPHFELTSRAGKKFDRRDITIVDDSGFSISVGLWNQQALDFNLPEGSVAAIKGVRVTDFGGKSLSMGFSSTLIPNPEIPEAYALKGWYDSKGRNANFITLKQEPGMGGQSAASLTKFIAQRITIARAQAENLGRSEKGDFFSVKAAISFLKVDNFAYPACSNENCNKKVLEQPDGTWRCEKCDTNNARPNWRYILTISIIDETNQLWLTLFDDQAKQLLGVDANTLMSLKEEDPNEFTKITQSIQMNEYDFRIRAREDTYNDQSRIRYTVANLHSLNYRAEADYLADELSKALLA
chain 2: MATYQPYNEYSSVTGGGFENSESRPGSGESETNTRVNTLTPVTIKQILESKQDIQDGPFVSHNQELHHVCFVGVVRNITDHTANIFLTIEDGTGQIEVRKWSEDANDLAAGNDDSSGKGYGSQVAQQFEIGGYVKVFGALKEFGGKKNIQYAVIKPIDSFNEVLTHHLEVIKCHSIASGMMKQPLESASNNNGQSLFVKDDNDTSSGSSPLQRILEFCKKQCEGKDANSFAVPIPLISQSLNLDETTVRNCCTTLTDQGFIYPTFDDNNFFAL
chain 3: MASETPRVDPTEISNVNAPVFRIIAQIKSQPTESQLILQSPTISSKNGSEVEMITLNNIRVSMNKTFEIDSWYEFVCRNNDDGELGFLILDAVLCKFKENEDLSLNGVVALQRLCKKYPEIY
B1 yielded a Kd of more than 300 nM.
